We go through one compound from ChEMBL document CHEMBL2062462, “Thiophene bioisosteres of spirocyclic σ receptor ligands: relationships between substitution pattern and σ receptor affinity” (J Med Chem, 2012).

The assay in a line: Selectivity index, ratio of Ki for guinea pig brain sigma1 receptor to Ki for rat liver sigma2 receptor.

For `c1ccc(CN2CCC3(CC2)OCCc2sccc23)cc1`, the Ratio Ki came to 42.
